# Several values for one entry are separate records, joined by “and”; a condition that tells them apart may be missing. Equal values may be shown once. Read-outs that look alike come from different tables or passages of the source.
# Amino acid sequences for entries named in this document (tags omitted).
# UniProt Q9BY41, whole entry L179A: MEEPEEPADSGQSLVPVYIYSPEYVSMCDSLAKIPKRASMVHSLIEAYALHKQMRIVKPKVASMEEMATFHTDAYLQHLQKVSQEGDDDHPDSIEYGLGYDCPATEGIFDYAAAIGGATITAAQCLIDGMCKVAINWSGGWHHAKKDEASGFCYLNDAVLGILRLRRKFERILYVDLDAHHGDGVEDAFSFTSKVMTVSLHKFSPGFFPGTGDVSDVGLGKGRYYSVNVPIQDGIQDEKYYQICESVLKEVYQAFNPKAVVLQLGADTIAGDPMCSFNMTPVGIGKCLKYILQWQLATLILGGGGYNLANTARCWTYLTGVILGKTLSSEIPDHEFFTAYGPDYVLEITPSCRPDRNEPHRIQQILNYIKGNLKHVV
# UniProt Q9BY41, whole entry M274A: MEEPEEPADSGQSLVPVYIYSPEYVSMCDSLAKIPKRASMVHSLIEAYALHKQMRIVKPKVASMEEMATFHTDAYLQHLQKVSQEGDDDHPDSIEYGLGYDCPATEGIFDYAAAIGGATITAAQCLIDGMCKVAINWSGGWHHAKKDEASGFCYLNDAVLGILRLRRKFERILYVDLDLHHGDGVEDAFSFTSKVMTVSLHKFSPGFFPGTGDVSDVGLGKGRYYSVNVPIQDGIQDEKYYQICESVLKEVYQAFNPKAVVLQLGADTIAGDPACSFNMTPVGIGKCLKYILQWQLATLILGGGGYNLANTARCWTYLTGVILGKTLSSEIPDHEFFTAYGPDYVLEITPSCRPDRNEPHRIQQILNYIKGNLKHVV
# UniProt Q9BY41, whole entry S39E/M40A: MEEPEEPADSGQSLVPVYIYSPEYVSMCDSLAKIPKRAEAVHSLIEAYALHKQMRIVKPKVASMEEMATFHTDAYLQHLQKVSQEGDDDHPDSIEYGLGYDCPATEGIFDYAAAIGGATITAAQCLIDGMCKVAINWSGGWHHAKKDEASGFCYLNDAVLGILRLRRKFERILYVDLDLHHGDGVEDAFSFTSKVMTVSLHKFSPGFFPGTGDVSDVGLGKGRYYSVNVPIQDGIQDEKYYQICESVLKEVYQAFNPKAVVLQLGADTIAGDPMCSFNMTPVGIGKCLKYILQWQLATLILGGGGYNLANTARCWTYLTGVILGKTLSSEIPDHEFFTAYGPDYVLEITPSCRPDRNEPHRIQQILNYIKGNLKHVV
# How the values were obtained:
# wild-type HDAC8 [1] = target: T1, wild-type HDAC8 (Homo sapiens, UniProt Q9BY41)
# L179A-HDAC8 = L179A-HDAC8 (Homo sapiens, UniProt Q9BY41, L179A)
# M274A-HDAC8 = M274A-HDAC8 (Homo sapiens, UniProt Q9BY41, M274A); conditions: NMR titration
# S39E,M40A-HDAC8 = S39E,M40A-HDAC8 (Homo sapiens, UniProt Q9BY41, M40A/S39E); conditions: S39E,M40A-HDAC8 vs wild-type HDAC8
# wild-type HDAC8 [2] = target: T1, wild-type HDAC8; conditions: V25Cγ2 in TCSA-bound HDAC8
smiles,measurement,setting,value
"CC(/C=C/C(=O)NO)=C\[C@@H](C)C(=O)c1ccc(N(C)C)cc1 [TCSA, trichostatin A]",Fraction saturated free HDAC8,"wild-type HDAC8 [1]; 17.5 µm TSA, wild type HDAC8 (Fig 3d)",0.450
same,Fraction saturated free HDAC8,"wild-type HDAC8 [1]; 35.0 µm TSA, wild type HDAC8 (Fig 3d)",0.708
same,Fraction saturated free HDAC8,"wild-type HDAC8 [1]; 70.0 µm TSA, wild type HDAC8 (Fig 3d)",0.838
same,Fraction saturated free HDAC8,"wild-type HDAC8 [1]; 175.0 µm TSA, wild type HDAC8 (Fig 3d)",0.912
same,Fraction saturated free HDAC8,"wild-type HDAC8 [1]; NMR titration, wild type HDAC8, Con. Of TSA 17.5 (unit not given)",0.450
same,Fraction saturated free HDAC8,"wild-type HDAC8 [1]; NMR titration, wild type HDAC8, Con. Of TSA 35.0 (unit not given)",0.708
same,Fraction saturated free HDAC8,"wild-type HDAC8 [1]; NMR titration, wild type HDAC8, Con. Of TSA 70.0 (unit not given)",0.838
same,Fraction saturated free HDAC8,"wild-type HDAC8 [1]; NMR titration, wild type HDAC8, Con. Of TSA 175.0 (unit not given)",0.912
same,Fraction saturated L179A-HDAC8,L179A-HDAC8; 90 µm TSA (Fig 3d),0.429
same,Fraction saturated L179A-HDAC8,L179A-HDAC8; 180 µm TSA (Fig 3d),0.571
same,Fraction saturated L179A-HDAC8,L179A-HDAC8; 270 µm TSA (Fig 3d),0.664
same,Fraction saturated L179A-HDAC8,L179A-HDAC8; 360 µm TSA (Fig 3d),0.665
same,Fraction saturated L179A-HDAC8,L179A-HDAC8; 540 µm TSA (Fig 3d),0.751
same,Fraction saturated L179A-HDAC8,L179A-HDAC8; 720 µm TSA (Fig 3d),0.791
same,Fraction saturated M274A-HDAC8,M274A-HDAC8; Con. Of TSA 105 (unit not given),0.299
same,Fraction saturated M274A-HDAC8,M274A-HDAC8; Con. Of TSA 210 (unit not given),0.552
same,Fraction saturated M274A-HDAC8,M274A-HDAC8; Con. Of TSA 315 (unit not given),0.679
same,Fraction saturated M274A-HDAC8,M274A-HDAC8; Con. Of TSA 420 (unit not given),0.739
same,Fraction saturated M274A-HDAC8,M274A-HDAC8; Con. Of TSA 630 (unit not given),0.776
same,Fraction saturated M274A-HDAC8,M274A-HDAC8; Con. Of TSA 840 (unit not given),0.796
same,TCSA affinity compared with wild-type HDAC8,"S39E,M40A-HDAC8",No significant difference
same,R2eff,"wild-type HDAC8 [2]; 14.1 T, 278 K, nu_cpmg 66.67 Hz",32.498 s⁻¹
same,R2eff,"wild-type HDAC8 [2]; 14.1 T, 278 K, nu_cpmg 133.33 Hz",26.223 s⁻¹ and 27.189 s⁻¹
same,R2eff,"wild-type HDAC8 [2]; 14.1 T, 278 K, nu_cpmg 200.00 Hz",24.850 s⁻¹
same,R2eff,"wild-type HDAC8 [2]; 14.1 T, 278 K, nu_cpmg 266.67 Hz",25.697 s⁻¹
same,R2eff,"wild-type HDAC8 [2]; 14.1 T, 278 K, nu_cpmg 333.33 Hz",25.422 s⁻¹
same,R2eff,"wild-type HDAC8 [2]; 14.1 T, 278 K, nu_cpmg 400.00 Hz",24.058 s⁻¹
same,R2eff,"wild-type HDAC8 [2]; 14.1 T, 278 K, nu_cpmg 466.67 Hz",25.990 s⁻¹
same,R2eff,"wild-type HDAC8 [2]; 14.1 T, 278 K, nu_cpmg 533.33 Hz",25.379 s⁻¹
same,R2eff,"wild-type HDAC8 [2]; 14.1 T, 278 K, nu_cpmg 600.00 Hz",24.388 s⁻¹
same,R2eff,"wild-type HDAC8 [2]; 14.1 T, 278 K, nu_cpmg 666.67 Hz",25.489 s⁻¹
same,R2eff,"wild-type HDAC8 [2]; 14.1 T, 278 K, nu_cpmg 733.33 Hz",24.274 s⁻¹
same,R2eff,"wild-type HDAC8 [2]; 14.1 T, 278 K, nu_cpmg 800.00 Hz",23.409 s⁻¹
same,R2eff,"wild-type HDAC8 [2]; 14.1 T, 288 K, nu_cpmg 133.33 Hz",27.625 s⁻¹ and 28.166 s⁻¹
same,R2eff,"wild-type HDAC8 [2]; 14.1 T, 288 K, nu_cpmg 200.00 Hz",23.856 s⁻¹
same,R2eff,"wild-type HDAC8 [2]; 14.1 T, 288 K, nu_cpmg 266.67 Hz",22.488 s⁻¹
same,R2eff,"wild-type HDAC8 [2]; 14.1 T, 288 K, nu_cpmg 333.33 Hz",21.037 s⁻¹
same,R2eff,"wild-type HDAC8 [2]; 14.1 T, 288 K, nu_cpmg 400.00 Hz",22.085 s⁻¹
same,R2eff,"wild-type HDAC8 [2]; 14.1 T, 288 K, nu_cpmg 466.67 Hz",21.747 s⁻¹
same,R2eff,"wild-type HDAC8 [2]; 14.1 T, 288 K, nu_cpmg 533.33 Hz",21.611 s⁻¹
same,R2eff,"wild-type HDAC8 [2]; 14.1 T, 288 K, nu_cpmg 600.00 Hz",21.086 s⁻¹
same,R2eff,"wild-type HDAC8 [2]; 14.1 T, 288 K, nu_cpmg 666.67 Hz",21.297 s⁻¹
same,R2eff,"wild-type HDAC8 [2]; 14.1 T, 288 K, nu_cpmg 733.33 Hz",21.731 s⁻¹
same,R2eff,"wild-type HDAC8 [2]; 14.1 T, 288 K, nu_cpmg 800.00 Hz",19.951 s⁻¹
same,R2eff,"wild-type HDAC8 [2]; 14.1 T, 298 K, nu_cpmg 66.67 Hz",37.343 s⁻¹
same,R2eff,"wild-type HDAC8 [2]; 14.1 T, 298 K, nu_cpmg 133.33 Hz",26.400 s⁻¹ and 26.714 s⁻¹
same,R2eff,"wild-type HDAC8 [2]; 14.1 T, 298 K, nu_cpmg 200.00 Hz",23.363 s⁻¹
same,R2eff,"wild-type HDAC8 [2]; 14.1 T, 298 K, nu_cpmg 266.67 Hz",21.017 s⁻¹
same,R2eff,"wild-type HDAC8 [2]; 14.1 T, 298 K, nu_cpmg 333.33 Hz",18.977 s⁻¹
same,R2eff,"wild-type HDAC8 [2]; 14.1 T, 298 K, nu_cpmg 400.00 Hz",18.431 s⁻¹
same,R2eff,"wild-type HDAC8 [2]; 14.1 T, 298 K, nu_cpmg 466.67 Hz",18.608 s⁻¹
same,R2eff,"wild-type HDAC8 [2]; 14.1 T, 298 K, nu_cpmg 533.33 Hz",17.449 s⁻¹
same,R2eff,"wild-type HDAC8 [2]; 14.1 T, 298 K, nu_cpmg 600.00 Hz",16.890 s⁻¹
same,R2eff,"wild-type HDAC8 [2]; 14.1 T, 298 K, nu_cpmg 666.67 Hz",16.824 s⁻¹
same,R2eff,"wild-type HDAC8 [2]; 14.1 T, 298 K, nu_cpmg 733.33 Hz",16.755 s⁻¹
same,R2eff,"wild-type HDAC8 [2]; 14.1 T, 298 K, nu_cpmg 800.00 Hz",17.438 s⁻¹
same,R2eff,"wild-type HDAC8 [2]; 18.8 T, 278 K, nu_cpmg 66.67 Hz",39.061 s⁻¹
same,R2eff,"wild-type HDAC8 [2]; 18.8 T, 278 K, nu_cpmg 133.33 Hz",32.118 s⁻¹ and 33.502 s⁻¹
same,R2eff,"wild-type HDAC8 [2]; 18.8 T, 278 K, nu_cpmg 200.00 Hz",32.056 s⁻¹
same,R2eff,"wild-type HDAC8 [2]; 18.8 T, 278 K, nu_cpmg 266.67 Hz",29.457 s⁻¹
same,R2eff,"wild-type HDAC8 [2]; 18.8 T, 278 K, nu_cpmg 333.33 Hz",30.917 s⁻¹
same,R2eff,"wild-type HDAC8 [2]; 18.8 T, 278 K, nu_cpmg 400.00 Hz",30.040 s⁻¹
same,R2eff,"wild-type HDAC8 [2]; 18.8 T, 278 K, nu_cpmg 466.67 Hz",29.695 s⁻¹
same,R2eff,"wild-type HDAC8 [2]; 18.8 T, 278 K, nu_cpmg 533.33 Hz",28.967 s⁻¹
same,R2eff,"wild-type HDAC8 [2]; 18.8 T, 278 K, nu_cpmg 600.00 Hz",29.134 s⁻¹
same,R2eff,"wild-type HDAC8 [2]; 18.8 T, 278 K, nu_cpmg 666.67 Hz",28.601 s⁻¹
same,R2eff,"wild-type HDAC8 [2]; 18.8 T, 278 K, nu_cpmg 733.33 Hz",29.615 s⁻¹
same,R2eff,"wild-type HDAC8 [2]; 18.8 T, 278 K, nu_cpmg 800.00 Hz",29.307 s⁻¹
same,R2eff,"wild-type HDAC8 [2]; 18.8 T, 288 K, nu_cpmg 66.67 Hz",52.270 s⁻¹
same,R2eff,"wild-type HDAC8 [2]; 18.8 T, 288 K, nu_cpmg 133.33 Hz",33.997 s⁻¹ and 34.323 s⁻¹
same,R2eff,"wild-type HDAC8 [2]; 18.8 T, 288 K, nu_cpmg 200.00 Hz",28.626 s⁻¹
same,R2eff,"wild-type HDAC8 [2]; 18.8 T, 288 K, nu_cpmg 266.67 Hz",25.525 s⁻¹
same,R2eff,"wild-type HDAC8 [2]; 18.8 T, 288 K, nu_cpmg 333.33 Hz",23.878 s⁻¹
same,R2eff,"wild-type HDAC8 [2]; 18.8 T, 288 K, nu_cpmg 400.00 Hz",23.396 s⁻¹
same,R2eff,"wild-type HDAC8 [2]; 18.8 T, 288 K, nu_cpmg 466.67 Hz",22.481 s⁻¹
same,R2eff,"wild-type HDAC8 [2]; 18.8 T, 288 K, nu_cpmg 533.33 Hz",22.246 s⁻¹
same,R2eff,"wild-type HDAC8 [2]; 18.8 T, 288 K, nu_cpmg 600.00 Hz",22.668 s⁻¹
same,R2eff,"wild-type HDAC8 [2]; 18.8 T, 288 K, nu_cpmg 666.67 Hz",22.090 s⁻¹
same,R2eff,"wild-type HDAC8 [2]; 18.8 T, 288 K, nu_cpmg 733.33 Hz",22.188 s⁻¹
same,R2eff,"wild-type HDAC8 [2]; 18.8 T, 288 K, nu_cpmg 800.00 Hz",22.089 s⁻¹
same,R2eff,"wild-type HDAC8 [2]; 18.8 T, 298 K, nu_cpmg 66.67 Hz",52.299 s⁻¹
same,R2eff,"wild-type HDAC8 [2]; 18.8 T, 298 K, nu_cpmg 200.00 Hz",31.958 s⁻¹
same,R2eff,"wild-type HDAC8 [2]; 18.8 T, 298 K, nu_cpmg 266.67 Hz",27.699 s⁻¹
same,R2eff,"wild-type HDAC8 [2]; 18.8 T, 298 K, nu_cpmg 333.33 Hz",24.727 s⁻¹
same,R2eff,"wild-type HDAC8 [2]; 18.8 T, 298 K, nu_cpmg 400.00 Hz",22.893 s⁻¹
same,R2eff,"wild-type HDAC8 [2]; 18.8 T, 298 K, nu_cpmg 466.67 Hz",21.367 s⁻¹
same,R2eff,"wild-type HDAC8 [2]; 18.8 T, 298 K, nu_cpmg 533.33 Hz",20.604 s⁻¹
same,R2eff,"wild-type HDAC8 [2]; 18.8 T, 298 K, nu_cpmg 600.00 Hz",20.442 s⁻¹
same,R2eff,"wild-type HDAC8 [2]; 18.8 T, 298 K, nu_cpmg 666.67 Hz",19.343 s⁻¹
same,R2eff,"wild-type HDAC8 [2]; 18.8 T, 298 K, nu_cpmg 733.33 Hz",19.099 s⁻¹
same,R2eff,"wild-type HDAC8 [2]; 18.8 T, 298 K, nu_cpmg 800.00 Hz",18.871 s⁻¹

# Reference: paper PMC10576142, “Intrinsic structural dynamics dictate enzymatic activity and inhibition” (Proceedings of the National Academy of Sciences of the …, 2023)
